# Patent US20180177890A1, “LIGAND-CYTOTOXIC DRUG CONJUGATE, PREPARATION METHOD THEREOF, AND USE THEREOF” (priority 2015, published 2018)
# B1: 39: Nimotuzumab-propanethiol 39c coupled with drug-linker compound 4; average y=2.2 (conjugate, chains of the INN, looked up)
# heavy: QVQLQQSGAEVKKPGSSVKVSCKASGYTFTNYYIYWVRQAPGQGLEWIGGINPTSGGSNFNEKFKTRVTITADESSTTAYMELSSLRSEDTAFYFCTRQGLWFDSDGRGFDFWGQGTTVTVSSASTKGPSVFPLAPSSKSTSGGTAALGCLVKDYFPEPVTVSWNSGALTSGVHTFPAVLQSSGLYSLSSVVTVPSSSLGTQTYICNVNHKPSNTKVDKKV[omitted - human IgG1 Fc]
# light: DIQMTQSPSSLSASVGDRVTITCRSSQNIVHSNGNTYLDWYQQTPGKAPKLLIYKVSNRFSGVPSRFSGSGSGTDFTFTISSLQPEDIATYYCFQYSHVPWTFGQGTKLQITRTVAAPSVFIFPPSDEQLKSGTASVVCLLNNFYPREAKVQWKVDNALQSGNSQESVTEQDSKDSTYSLSSTLTLSKADYEKHKVYACEVTHQGLSSPVTKSFNRGEC
# modifications: drug-linker compound 4 via propanethiol, DAR 2.2
# B2: 41: Nimotuzumab-propanethiol 39c coupled with drug-linker compound 26; average y=2.3 (conjugate, chains of the INN, looked up)
# heavy: B1 heavy
# light: B1 light
# modifications: propanethiol-linked drug-linker compound 26, DAR 2.3
# B3: 40: Nimotuzumab-propanethiol 39c coupled with drug-linker compound 8; average y=2.2 (conjugate, chains of the INN, looked up)
# heavy: B1 heavy
# light: B1 light
# modifications: propanethiol-linked drug-linker compound 8, DAR 2.2
# B4: 48: Nimotuzumab-propanethiol 39c coupled with drug-linker compound 45; average y=2.0 (conjugate, chains of the INN, looked up)
# heavy: B1 heavy
# light: B1 light
# modifications: propanethiol-linked drug-linker compound 45, DAR 2.0
# notes: Nimotuzumab-propanethiol 39c coupled with drug-linker compound 45; average y=2.0
# How the values were obtained:
# [1] = test system: human non-small cell lung cancer HCC827; experiment: Efficacy test on HCC827 transplanted tumor in nude mice; format: in vivo; settings: for tumor inhibition rate: multi-dose intraperitoneal injection, day 38
# Method: In this test, Nude mice were used as the test animals to evaluate the efficacy of the ADC compounds 39 and 40 of the present invention on transplanted tumors of human non-small cell lung cancer HCC827 in nude mice after multi-dose intraperitoneal injection.
# Tumor cell transplantation was performed after the nude mice were adapted to the laboratory environment for three days. HCC827 cells were inoculated subcutaneously in the right rib of nude mice (4×10^6+50% matrigel/mouse). On day 21 after inoculation, the drug was administered when the tumor grew to 209.41+25.93 mm^3 (dl).
# Mice were measured for tumor volume twice a week, the body weight of the nude mice was weighed and the data were recorded.
# Excel statistical software: mean value is calculated as average; SD is calculated as STDEV; SEM is calculated as STDEV/SQRT; P value between different groups is calculated as TTEST.
# Tumor volume (V) is calculated as: V=1/2×Llength×Lshort^2 Relative volume (RTV)=VT/V0 Tumor Inhibition Rate (%)=(CRTV−TRTV)/CRTV (%) wherein V0 and VT represent the tumor volume at the beginning of the experiment and at the end of the experiment, respectively. CRTV and TRTV represent the relative tumor volume of blank control group (Blank) and test group at the end of the experiment, respectively.
# HCC827 tumor cells = experiment: In vitro tumor cell proliferation inhibition test of antibody-drug conjugates against EGFR target, HCC827; format: cell-based, human; settings: HCC827, 76 hours incubation, CCK-8
# Method: The objective of this experiment is to test the in vitro proliferation inhibition effect of the antibody-drug conjugate against EGFR target according to the present invention on HCC827 tumor cells (non-small cell lung cancer cells, Chinese Academy of Sciences cell bank, No. #TCHu153). The cells were treated with different concentrations of the compound in vitro. After 76 hours of incubation, cell proliferation was detected by CCK-8 reagent (Cell Counting Kit-8, Dojindo, No. CK04), and the activity of the compound in vitro was evaluated according to the IC50 value.
# According to the test method of test example 1, the test cells were HCC827, and the cell culture medium was RPMI1640 medium (Invitrogen) containing 10% FBS (v/v).
molecule,measurement,setting,value
B1,tumor inhibition rate,[1]; 0.05 mg/mouse,62.78%
same,IC50,HCC827 tumor cells,0.353 nM
B2,IC50,HCC827 tumor cells,0.451 nM
B3,tumor inhibition rate,[1]; 0.025 mg/mouse,49.20%
same,tumor inhibition rate,[1]; 0.05 mg/mouse,86.8%
same,tumor inhibition rate,[1]; 0.1 mg/mouse,93.41%
same,anti-tumor effect in three different dose groups,"[1]; 0.025, 0.05, 0.1 mg/mouse",dose dependent
same,IC50,HCC827 tumor cells,0.255 nM
B4,IC50,HCC827 tumor cells,0.993 nM
